Reference: US20250186563A1, “UNIT DOSE FORMULATION OF ANTIDOTES FOR FACTOR XA INHIBITORS AND METHODS OF USING THE SAME” (Alexion Pharmaceuticals, Inc., priority 2009, published 2025)

By UniProt entry, the sequences of proteins in these tests, tags left out. Residues count along the entry.
UniProt P00742, 41-179 limits assumed: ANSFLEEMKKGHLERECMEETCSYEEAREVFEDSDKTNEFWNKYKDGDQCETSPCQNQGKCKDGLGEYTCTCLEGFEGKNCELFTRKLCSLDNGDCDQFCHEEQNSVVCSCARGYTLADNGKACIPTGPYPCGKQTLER
UniProt P00742, 235-488 limits assumed: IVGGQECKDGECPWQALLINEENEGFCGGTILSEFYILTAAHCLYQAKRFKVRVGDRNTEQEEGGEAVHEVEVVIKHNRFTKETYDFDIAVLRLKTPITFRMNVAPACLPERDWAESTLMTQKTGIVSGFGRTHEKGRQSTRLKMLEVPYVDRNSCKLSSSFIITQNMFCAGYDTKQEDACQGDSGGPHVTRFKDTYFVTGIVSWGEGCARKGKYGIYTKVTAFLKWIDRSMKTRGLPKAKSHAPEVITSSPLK

Key:
fXa = biological target: T1, fXa (Homo sapiens, UniProt P00742); experiment: fXa chromogenic activity assay: inhibition by fXa inhibitors and reversal by antidote; format: biochemical; details: for % Correction of inhibition by fXa inhibitors: fXa 3.0 nM
T1 construct: purified active human plasma derived fXa (3 nM); from tissue; host or cells: human plasma

[1] = system: betrixaban anticoagulation (whole blood INR); experiment: In vivo mouse model, PK-PD of betrixaban with antidote; design: species or system C57Bl/6 mice
Experimental: 15 mg/kg was used for antidote treated group. A single intravenous (IV) injection of antidote (300 ug/200 μL) or vehicle (normal saline, 200 μL) was administered 5 minutes prior to the 1.5 hr. time point.
Blood samples (0.5 mL) were obtained in 50 μL trisodium citrate. Whole blood INR was measured using Hemochron Jr. cartridges (International Technidyne Corporation) per the manufacture's instructions.
15 mg/kg was used for antidote (300 μg/200 μL) treated group.
Vehicle (control_1) or r-Antidote (1 injection) was administered 5 min prior to the 1 hr. time point. […] Mouse blood samples were taken at 2 hr. for vehicle (control_2) and r-Antidote (2 injections) treated mice.

[2] = system: rivaroxaban-induced anticoagulation; experiment: Reversal of rivaroxaban-induced anticoagulation by IV r-Antidote in rats; format: in vivo
Experimental: Blood sampling catheter patency was maintained by slow infusion of normal saline between samples. […] Whole blood INR and PT measurements were determined on a Hemochron Jr using the citrated PT cartridges. Whole blood INR and PT are used for monitoring patients under warfarin anticoagulation and are reported as validated methods for evaluating extent of anticoagulation. […] The anticoagulation status of dosed rats was quantitated by a point of care clotting assay (Whole Blood INR).
Blood sampling catheter patency was maintained by slow infusion of normal saline between samples. […] Quantitation was performed using a calibration standard curve generated from weighted least square regression analysis.
Rats were anesthetized and catheterized as described in example 18. […] Whole blood INR/PT was determined as described in Example 18. r-Antidote concentrations were determined by ELISA as described in Example 23. […] Quantitation was performed using a calibration standard curve generated from weighted least square regression analysis.

[3] = system: enoxaparin-induced anticoagulation; experiment: Enoxaparin-induced anticoagulation and its reversal in rats; format: in vivo; details: enoxaparin 3.0 mg/kg, r-Antidote 5 mg bolus + 5 mg/h or protamine sulfate 0.9 mg
Experimental: Rats were anesthetized by intraperitoneal dosing of ketamine cocktail, rapidly catheterized for (jugular vein) administration of enoxaparin and a second catheter (femoral vein) was inserted for serial blood sampling. Blood sampling catheter patency was maintained by slow infusion of normal saline between samples. Rats were administered enoxaparin (Aventis Pharma, 100 mg/ml) diluted in normal saline at 6, 3, or 1 mg/kg as an IV bolus injection (1 mL). […] INR measurements were determined using Hemochron Jr point of care testing device.
In order to test the ability of r-Antidote to reverse enoxaparin induced anticoagulation and to compare the results to the extent of protamine reversal, we tested the agents in the following regimen: Rats were administered enoxaparin diluted into normal saline at 3.0 mg/kg or vehicle (normal saline) as an intravenous bolus injection (1 mL) at t=0. At 10 minutes post enoxaparin injection, vehicle, antidote (5 mg) or protamine sulfate (0.9 mg, Sigma) was administered intravenously as a 5 minute bolus injection. This was followed by a maintenance infusion for the remainder of the study (additional 45 minutes, 5 mg/h for r-Antidote and normal saline for protamine). […] Plasma aPTT measurements were determined using a MLA Electra 800 Automatic coagulation timer. […]

[4] = rhesus monkey, in vivo, iv, 10 mg
Experimental: Two animals were each dosed with 10 mg antidote by intravenous dosing over a ten minute period. Citrate anticoagulated plasma sample analysis for determination of T1/2 were carried out in a manner similar to that in the rat study (Example 23) except for the pretreatment of plasma samples with barium citrate absorption to remove endogenous monkey fX.
The mixture was kept on ice for 60 min and clarified by centrifugation with a micro-centrifuge at 13000 rpm for 15 min. The supernatant (30 uL) was mixed with 20 uL TBS/EDTA buffer (20 mM Tris/150 mM NaCl/50 mM EDTA, pH 7.4). […] Antidote concentration was then determined by the same ELISA procedure as for rat plasma (Example 23).

[5] = system: PT of rhesus monkey plasma; experiment: Prothrombin time in rhesus monkey plasma; format: biochemical, rhesus monkeys
Experimental: Prothrombin times were measured as in Example 12.

fXa (bovine fXa) = experiment: Plasma anti-fXa activity assay (modified Coamatic LMWH kit); format: in vivo
Experimental: The effect of r-Antidote on enoxaparin-induced anticoagulation was measured by plasma anti-fXa activity assay. The anti-fXa activity assay is based on a modified LMWH assay kit (Coamatic LMWH) which expresses the anticoagulant activity of LMWH in terms of anti-fXa units. The anti-fXa units assay measures residual fXa (bovine fXa) activity in plasma using a fXa chromogenic substrate (S2732). Known concentrations of enoxaparin standard (U/ml) were used to construct a standard curve for measurement of anti-fXa units (U/ml) in unknown samples.
The r-Antidote was administered as a bolus at a dose of 1 mg, 2 mg, or 4 mg.
In the same model, fondaparinux was administrated at a dose of 1 mg/kg (IV bolus) followed by r-Antidote (4 mg bolus starting at 5 minutes+4 mg/hr infusion for the duration of the experiment).
The anti-fXa activity for fondaparinux was expressed as g/ml by using a known concentration of fondaparinux as a standard. When measured using enoxaparin as the standard, 1 g/ml fondaparinux was equivalent to 0.66 U/ml enoxaparin in rat plasma, or 0.80 U/ml enoxaparin in human plasma.

[6] = r-Antidote treated mice, […] after 15 mg/kg betrixaban PO
[7] = rats, r-Antidote 4 mg IV bolus + 4 mg/hr infusion

B1: r-Antidote: fXa derivative lacking the 6-39 amino acid residues of SEQ ID NO. 3, expressed in CHO cells, after removal of the linker (SEQ ID NO. 13) (protein)
chain: ANSFLFWNKYKDGDQCETSPCQNQGKCKDGLGEYTCTCLEGFEGKNCELFTRKLCSLDNGDCDQFCHEEQNSVVCSCARGYTLADNGKACIPTGPYPCGKQTLERIVGGQECKDGECPWQALLINEENEGFCGGTILSEFYILTAAHCLYQAKRFKVRVGDRNTEQEEGGEAVHEVEVVIKHNRFTKETYDFDIAVLRLKTPITFRMNVAPACLPERDWAESTLMTQKTGIVSGFGRTHEKGRQSTRLKMLEVPYVDRNSCKLSSSFIITQNMFCAGYDTKQEDACQGDAGGPHVTRFKDTYFVTGIVSWGEGCARKGKYGIYTKVTAFLKWIDRSMKTRGLPKAKSHAPEVITSSPLK
- reversal of inhibition (fXa; 186 nM r-Antidote, apixaban 7.5 nM): > 70%
- correction of inhibition (fXa; 186 nM r-Antidote, betrixaban 7.5 nM): > 95%
- correction of inhibition (fXa; 186 nM r-Antidote, rivaroxaban 7.5 nM): > 95%
- % Correction of inhibition by fXa inhibitors (fXa; r-Antidote 9.3 nM, Apixaban 7.5 nM): 13.3%
- % Correction of inhibition by fXa inhibitors (fXa; r-Antidote 9.3 nM, Betrixaban 7.5 nM): 21.5%
- % Correction of inhibition by fXa inhibitors (fXa; r-Antidote 9.3 nM, Rivaroxaban 7.5 nM): 23.2%
- % Correction of inhibition by fXa inhibitors (fXa; r-Antidote 18.6 nM, Apixaban 7.5 nM): 33.5%
- % Correction of inhibition by fXa inhibitors (fXa; r-Antidote 18.6 nM, Betrixaban 7.5 nM): 52.7%
- % Correction of inhibition by fXa inhibitors (fXa; r-Antidote 18.6 nM, Rivaroxaban 7.5 nM): 54.2%
- % Correction of inhibition by fXa inhibitors (fXa; r-Antidote 37.2 nM, Apixaban 7.5 nM): 49.9%
- % Correction of inhibition by fXa inhibitors (fXa; r-Antidote 37.2 nM, Betrixaban 7.5 nM): 75.5%
- % Correction of inhibition by fXa inhibitors (fXa; r-Antidote 37.2 nM, Rivaroxaban 7.5 nM): 72.6%
- % Correction of inhibition by fXa inhibitors (fXa; r-Antidote 55.8 nM, Apixaban 7.5 nM): 59.2%
- % Correction of inhibition by fXa inhibitors (fXa; r-Antidote 55.8 nM, Betrixaban 7.5 nM): 86.5%
- % Correction of inhibition by fXa inhibitors (fXa; r-Antidote 55.8 nM, Rivaroxaban 7.5 nM): 79.9%
- % Correction of inhibition by fXa inhibitors (fXa; r-Antidote 93.1 nM, Apixaban 7.5 nM): 64.4%
- % Correction of inhibition by fXa inhibitors (fXa; r-Antidote 93.1 nM, Betrixaban 7.5 nM): 94.9%
- % Correction of inhibition by fXa inhibitors (fXa; r-Antidote 93.1 nM, Rivaroxaban 7.5 nM): 89.1%
- % Correction of inhibition by fXa inhibitors (fXa; r-Antidote 148.9 nM, Apixaban 7.5 nM): 74.8%
- % Correction of inhibition by fXa inhibitors (fXa; r-Antidote 148.9 nM, Betrixaban 7.5 nM): 99.3%
- % Correction of inhibition by fXa inhibitors (fXa; r-Antidote 148.9 nM, Rivaroxaban 7.5 nM): 96.7%
- % Correction of inhibition by fXa inhibitors (fXa; r-Antidote 186.1 nM, Apixaban 7.5 nM): 72.6%
- % Correction of inhibition by fXa inhibitors (fXa; r-Antidote 186.1 nM, Betrixaban 7.5 nM): 99.5%
- % Correction of inhibition by fXa inhibitors (fXa; r-Antidote 186.1 nM, Rivaroxaban 7.5 nM): 94.8%
- reduction of functional betrixaban / correction of whole blood INR ([1]; mice, betrixaban 15 mg/kg PO, single IV injection of antidote (300 ug)): > 50%
- % Correction, Mean [1, 6]: 77.3%
- Expected INR, Mean [1, 6]: 3.0
- Measured INR, Mean ([1]; r-Antidote treated mice, […] after 15 mg/kg betrixaban PO, 5 min after antidote injection): 1.3
- free (unbound) fraction of rivaroxaban upon r-antidote dosing ([2]; anticoagulated rats, r-Antidote 1.0 or 3.4 mg IV bolus): dose responsive reduction
- free (unbound) concentration of rivaroxaban upon r-Antidote dosing [2, 7]: greatly reduced
- reversal of rivaroxaban-induced anticoagulation (whole blood INR and PT ratio) [2, 7]: sustained reversal
- reversal of the effect of rivaroxaban (whole blood INR) ([2]; rats, rivaroxaban 0.25 mg/kg/hr IV 30 min, r-Antidote 1.0 or 3.4 mg IV bolus): dose responsive reversal
- reversal of enoxaparin-induced anticoagulation (plasma aPTT) [3]: sustained reversal
- Plasma half life of clearance (T1/2) [4]: approximately 30 minutes
- PT ([5]; 250 nM rivaroxaban + 244 nM r-Antidote): 25 ± 7 s
- PT ([5]; 250 nM rivaroxaban + 488 nM r-Antidote): 19.9 ± 1.9 s
- PT ([5]; r-Antidote alone in baseline plasma): 17.7 s
- reversal of increase in anti-fXa activity due to fondaparinux (fXa (bovine fXa); fondaparinux 1 mg/kg IV bolus, r-Antidote 4 mg bolus + 4 mg/hr infusion): rapidly and substantially reversed
- reversal of enoxaparin-induced anticoagulation (plasma anti-fXa units) (fXa (bovine fXa); r-Antidote bolus 1 mg, 2 mg or 4 mg): reversed the enoxaparin-induced anticoagulation in a dose-responsive manner
